{
  "source": "patent US20240115712A1",
  "about": "“SEMICARBAZONE-BASED SAPONIN CONJUGATE” (priority 2021, published 2024)",
  "key": {"[1]": {"test_system": "HSP27 mRNA expression in A431 cells", "assay": "HSP27 gene silencing (qPCR) in A431 cells", "format": "cell-based, human", "conditions": "A431 (EGFR++/HER2+/-); conjugate titrated +50 pM Trastuzumab-HSP27BNA; read-out: IC50 targeted HSP27 gene silencing", "description": "RNA Isolation and Gene Expression Analysis\nRNA from cells was isolated and analysed according to standard protocols (Biorad)."}, "A431 cells": {"test_system": "A431 cells", "format": "cell-based, human", "conditions": "for cell killing activity of conjugate alone: A431, equivalent concentrations, without CD71mab-saporin", "protocol": "Cell viability was determined by an MTS-assay, performed according to the manufacturer's instruction (CellTiter 96® AQueous One Solution Cell Proliferation Assay, Promega). Briefly, the MTS solution was diluted 20× in DMEM without phenol red (PAN-Biotech GmbH) supplemented with 10% FBS (PAN-Biotech GmbH). The cells were washed once with 200 μL PBS per well, after which 100 μL diluted MTS solution was added per well. The plate was incubated for approximately 20-30 minutes at 37° C. Subsequently, the optical density at 492 nm was measured on a Thermo Scientific Multiskan FC plate reader (Thermo Scientific)."}},
  "data": [
    {"substance": "Cetuximab-(EMCH-SO1861)^4: SO1861-EMCH conjugated to Cetuximab cysteines, hydrazone comparator", "values": [
      {"measurement": "IC50", "setting": "[1]", "value": 0.5, "unit": "nM"},
      {"measurement": "IC50", "setting": "A431 cells; A431 (EGFR++/CD71+), conjugate titrated +10 pM CD71mab-saporin, read-out: IC50 targeted cell killing", "value": 2, "unit": "nM"},
      {"measurement": "cell killing activity of conjugate alone", "setting": "A431 cells", "value": "could not induce any cell killing activity"}
    ]},
    {"substance": "Cetuximab-(SC-SO1861)^4: SO1861-SC-Mal conjugated via cysteine residues to Cetuximab, DAR 4", "values": [
      {"measurement": "cell killing activity of conjugate alone", "setting": "A431 cells", "value": "could not induce any cell killing activity"}
    ]}
  ]
}
